# Assays:
# [1] = Selectivity ratio of IC50 for human recombinant AChE to IC50 for Anopheles gambiae recombinant AChE1
# [2] = Selectivity ratio of IC50 for human recombinant AChE to IC50 for Aedes aegypti recombinant AChE1
compound,measurement,setting,value
CCN1CCN(C2CCN(C(=O)COc3ccc(-c4ccccc4)cc3)CC2)CC1,Ratio IC50,[1],141
same,Ratio IC50,[2],141

# Reference: ChEMBL document CHEMBL3861988, “Discovery of Selective Inhibitors Targeting Acetylcholinesterase 1 from Disease-Transmitting Mosquitoes” (J Med Chem, 2016)
